Assays:
Type in all cases: cell-based, human
[1] = system: Caspase-3 (Cas-3); test: Gene expression analysis (qPCR) in Caco-2 cells; conditions: Caco-2, IC50, 24 h, relative to 0.1% DMSO control
Experimental: (§1) Sensitive cancer cell line (Caco-2) was used for gene expression analysis of different genes controlling differentiation, apoptosis, tumor resistance, aggressiveness, and metastasis. […] After incubation, cells were harvested, and the total RNA was purified using Favor-Prep^TM Blood/Cultured cell total RNA purification mini kit (Favorgen Biotech Corp., Ping-Tung, Taiwan). RNA was reverse transcribed into the first-strand cDNA using Revert Aid First Strand cDNA Synthesis Kit (Thermo Scientific, Waltham, MA, USA). HERA^PLUS SYBR® Green qPCR Kit (Willowfort, Nottingham, UK) was utilized in quantitative polymerase chain reactions (qPCR). Gene expression was analyzed and quantified using the 2ˆ^−ΔΔCT method.

[2] = system: RAR-γ; test: Gene expression analysis (qPCR) in Caco-2 cells; conditions: Caco-2, IC50, 24 h, relative to 0.1% DMSO control, normalized to GAPDH
Experimental: as §1

[3] = system: E-cadherin; test: Gene expression analysis (qPCR) in Caco-2 cells; conditions: Caco-2, IC50, 24 h, relative to 0.1% DMSO control
Experimental: as §1

[4] = system: RAR-α; test: Gene expression analysis (qPCR) in Caco-2 cells; conditions: Caco-2, IC50, 24 h, relative to 0.1% DMSO control, normalized to GAPDH
Experimental: as §1

[5] = system: Caspase-8 (Cas-8); test: Gene expression analysis (qPCR) in Caco-2 cells; conditions: Caco-2, IC50, 24 h, relative to 0.1% DMSO control
Experimental: as §1

[6] = system: cytochrome-C (Cyt-C); test: Gene expression analysis (qPCR) in Caco-2 cells; conditions: Caco-2, IC50, 24 h, relative to 0.1% DMSO control
Experimental: as §1

[7] = system: WRN; test: Gene expression analysis (qPCR) in Caco-2 cells; conditions: Caco-2, IC50, 24 h, relative to 0.1% DMSO control
Experimental: as §1

[8] = system: RAI2; test: Gene expression analysis (qPCR) in Caco-2 cells; conditions: Caco-2, IC50, 24 h, relative to 0.1% DMSO control
Experimental: as §1

[9] = system: Bax; test: Gene expression analysis (qPCR) in Caco-2 cells; conditions: Caco-2, IC50, 24 h, relative to 0.1% DMSO control
Experimental: as §1

[10] = system: RAR-β; test: Gene expression analysis (qPCR) in Caco-2 cells; conditions: Caco-2, IC50, 24 h, relative to 0.1% DMSO control, normalized to GAPDH
Experimental: as §1

[11] = system: p53; test: Gene expression analysis (qPCR) in Caco-2 cells; conditions: Caco-2, IC50, 24 h, relative to 0.1% DMSO control
Experimental: as §1

[12] = system: Caco-2 cells; test: Isobologram analysis of retinoid + 5-FU combinations (MTT); conditions: Caco-2, combination with 5-FU
Description: This mathematical model allows the determination of CI (combination index) values based on the Equation (1):CI = d1/D1 + d2/D2 (1) where d1 and d2 are the doses of drug 1 and drug 2 that, when given in combination, produce a specific response. D1 and D2 are the doses of drug 1 and drug 2, that, when given individually, produce the same response. Also, CI < 1 is synergy, CI = 1 is additivity and CI > 1 is antagonism
DRI < 1 indicates unfavorable dose reduction and ineffective combination.

[13] = system: Caco-2 cells; test: Annexin V-FITC/PI apoptosis assay (flow cytometry); conditions: Caco-2, IC50 concentration, 12 h treatment
Experimental: The ability of synthetic retinoids to induce apoptosis in one of the sensitive cancer cell lines (namely, Caco-2 cells) was detected by Annexin V-FITC and PI according to the protocol of the detection kit (Beckman Coulter, Brea, CA, USA). […] Cells were collected, washed with phosphate-buffered saline (PBS) (Lonza), and resuspended in 1 mL of binding buffer. 100 µL cell suspension was incubated with 1 µL FITC-labeled Annexin V and 5 µL PI for 15 min at 4 °C in the dark. Finally, 400 µL ice-cold binding buffer was added, and the apoptotic cells in each sample were analyzed by Beckman Coulter Epics XL flow cytometer. Apoptotic index (AI) was calculated as the number of apoptotic cell deaths expressed as a percentage from the total gated cells.

[14] = system: MDA-MB 231; test: MTT antiproliferation assay; conditions: SI = IC50 (WI-38)/IC50 (cancer cell line)
Experimental: (§2) The antiproliferation and cytotoxicity were assessed using 3-(4,5-dimethylthiazol-2-yl)-2,5-diphenyltetrazolium bromide (MTT, Serva) colorimetric assay. To investigate the antiproliferation, all cell lines were seeded at a density of 20,000 cells per well in 96-well plates and allowed to adhere overnight. The attached cells were treated with five series concentrations (0.01, 0.1, 1, 10, and 100 μM) of synthetic retinoids (EC19 and EC23) and ATRA (standard retinoid positive control) in triplicate. These concentrations were prepared by diluting the stock solutions with serum-free culture media. The negative control cells were those treated with 0.1% DMSO solvent alone. The treated cells were handled in reduced light and maintained under standard culture growth conditions for 24 h. After the incubation period, MTT powder was prepared as a stock solution (5 mg/mL) and 20 μL of the MTT working reagent (final concentration 0.5 mg/mL) was added to each well. This was followed by incubation with MTT reagent for 4 h in a humidified atmosphere (37 °C, 5% CO2) with subsequent addition of 150 μL of DMSO solubilizing solvent and incubation for 20 min. The absorbance of solubilized violet formazan crystals was measured at 540 nm with Biotek 800 TS microplate reader. IC50 was calculated as the concentration of retinoid that produced 50% cell growth inhibition. For cytotoxicity assessment, WI-38 normal human fibroblast cells were used for the calculation of SI which is the ratio of IC50 retinoid (WI-38)/IC50 retinoid (cancer cell line).

[15] = system: Caco-2; test: MTT antiproliferation assay; conditions: SI = IC50 (WI-38)/IC50 (cancer cell line)
Experimental: as §2

[16] = system: HCT-116; test: MTT antiproliferation assay; conditions: SI = IC50 (WI-38)/IC50 (cancer cell line)
Experimental: as §2

[17] = system: A549; test: MTT antiproliferation assay; conditions: SI = IC50 (WI-38)/IC50 (cancer cell line)
Experimental: as §2

[18] = system: DU-145; test: MTT antiproliferation assay; conditions: SI = IC50 (WI-38)/IC50 (cancer cell line)
Experimental: as §2

[19] = system: Huh7; test: MTT antiproliferation assay; conditions: SI = IC50 (WI-38)/IC50 (cancer cell line)
Experimental: as §2

[20] = system: HepG2; test: MTT antiproliferation assay; conditions: SI = IC50 (WI-38)/IC50 (cancer cell line)
Experimental: as §2

[21] = system: HT-29; test: MTT antiproliferation assay; conditions: SI = IC50 (WI-38)/IC50 (cancer cell line)
Experimental: as §2

[22] = system: PC3; test: MTT antiproliferation assay; conditions: SI = IC50 (WI-38)/IC50 (cancer cell line)
Experimental: as §2

[23] = system: WI-38; test: MTT antiproliferation/cytotoxicity assay; conditions: SI = IC50 (WI-38)/IC50 (cell line)
Experimental: as §2, with “For cytotoxicity assessment, WI-38 normal human fibroblast cells were used for the calculation of SI which is the ratio of IC50 retinoid (WI-38)/IC50 retinoid (cancer cell line).” left out

CC1=C(/C=C/C(C)=C/C=C/C(C)=C/C(=O)O)C(C)(C)CCC1 [ATRA, All-trans retinoic acid, reference compound]
Cas-3 gene expression, fold change [1]: 1.5 fold
RAR-γ gene expression, fold increase [2]: 2.5 fold
E-cadherin gene expression, fold change [3]: did not show any significant increase
RAR-α gene expression, fold increase [4]: no significant effect
Cas-8 gene expression, fold change [5]: 1.2 fold
Cyt-C gene expression, fold change [6]: 7.7 fold
WRN gene expression, fold change [7]: 20 fold
RAI2 gene expression, fold change [8]: 41.6 fold
Bax gene expression, fold change [9]: 1.6 fold
RAR-β gene expression, fold increase [10]: 35 fold
p53 gene expression, fold change [11]: 1.2 fold
DRI (dose reduction index) [12]: 6.9 ± 0.7
CI (combination index) ([12]; CI < 1 is synergy): 0.29 ± 0.03
% Apoptotic index (AI) [13]: 12%
SI (selectivity index) [14]: <1
SI (selectivity index) [15]: 0.59 ± 0.01
SI (selectivity index) [16]: <1
SI (selectivity index) [17]: 0.4 ± 0.01
SI (selectivity index) [18]: <1
SI (selectivity index) [19]: <1
SI (selectivity index) [20]: 0.94 ± 0.02
SI (selectivity index) [21]: >1
SI (selectivity index) [22]: <1
SI (selectivity index) [23]: 1

Source: article PMC7835894, “Revealing the Potential Application of EC-Synthetic Retinoid Analogues in Anticancer Therapy” (Molecules, 2021)
